In ChEMBL document CHEMBL1123227, “Tricyclic epines. Novel (E)- and (Z)-11H-dibenz[b,e]azepines as potential central nervous system agents. Variation of the basic side chain” (1986):

Organism: Mus musculus
Test: Sedative activity relative with respect to clozapine.
Type: functional

CCN1CCN(C2=Nc3ccccc3/C(=C\C#N)c3ccccc32)CC1 gave a Relative activity of under 0.04.
In the case of Cc1ccc2c(c1)N=C(N1CCN(C)CC1)c1ccccc1/C2=C/C#N, the Relative activity is reported as 0.14.
